One experiment deals with Cholinesterase (Homo sapiens, UniProt P06276). Nature of the experiment: Inhibition of human plasma BChE assessed as butyrylthiocholine hydrolysis preincubated for 10 mins followed by addition of substrate measured after 2 mins by spectrophotometric method.
Another experiment addresses Acetylcholinesterase (Homo sapiens, UniProt P22303). Briefly: Inhibition of human AChE assessed as acetylthiocholine hydrolysis preincubated for 10 mins followed by addition of substrate measured after 2 mins by spectrophotometric method.

By UniProt entry, the sequences of proteins in these tests, tags left out. Residues count along the entry.
UniProt P06276, 29-602 limits assumed: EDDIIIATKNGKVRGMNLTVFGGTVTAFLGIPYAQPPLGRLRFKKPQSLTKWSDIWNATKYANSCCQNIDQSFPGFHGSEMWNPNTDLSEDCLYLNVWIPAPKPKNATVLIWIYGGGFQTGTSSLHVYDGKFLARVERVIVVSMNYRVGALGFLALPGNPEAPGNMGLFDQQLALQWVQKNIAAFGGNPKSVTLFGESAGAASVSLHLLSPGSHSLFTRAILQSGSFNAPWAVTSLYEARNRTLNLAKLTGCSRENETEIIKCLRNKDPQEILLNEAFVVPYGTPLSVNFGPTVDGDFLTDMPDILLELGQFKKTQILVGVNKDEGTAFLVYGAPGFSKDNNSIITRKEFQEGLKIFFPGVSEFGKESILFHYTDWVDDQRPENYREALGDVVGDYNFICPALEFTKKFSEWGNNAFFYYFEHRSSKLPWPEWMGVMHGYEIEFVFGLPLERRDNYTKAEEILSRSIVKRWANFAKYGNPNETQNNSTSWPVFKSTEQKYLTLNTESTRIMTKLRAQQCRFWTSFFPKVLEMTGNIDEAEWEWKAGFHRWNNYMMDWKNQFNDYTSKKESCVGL
UniProt P22303, 32-614 limits assumed: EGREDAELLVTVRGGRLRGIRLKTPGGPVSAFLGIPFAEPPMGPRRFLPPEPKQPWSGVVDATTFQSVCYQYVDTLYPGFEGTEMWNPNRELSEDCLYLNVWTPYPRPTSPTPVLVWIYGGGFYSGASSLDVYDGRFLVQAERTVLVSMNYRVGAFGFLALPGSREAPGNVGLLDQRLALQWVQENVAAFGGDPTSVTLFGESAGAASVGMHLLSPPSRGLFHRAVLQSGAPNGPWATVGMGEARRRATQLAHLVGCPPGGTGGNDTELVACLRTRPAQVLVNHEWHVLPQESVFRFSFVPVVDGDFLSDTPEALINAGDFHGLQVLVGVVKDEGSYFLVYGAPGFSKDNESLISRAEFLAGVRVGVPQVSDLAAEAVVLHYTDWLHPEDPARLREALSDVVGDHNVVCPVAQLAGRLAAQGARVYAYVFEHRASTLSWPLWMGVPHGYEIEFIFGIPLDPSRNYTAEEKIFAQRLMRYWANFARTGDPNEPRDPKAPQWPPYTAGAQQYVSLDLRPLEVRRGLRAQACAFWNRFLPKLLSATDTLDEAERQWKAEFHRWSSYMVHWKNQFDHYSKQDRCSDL

Molecules are shown by their SMILES.

For the molecule `CCCCCCCC1OCc2c[n+](C)c(C)c(OC(=O)N(C)C)c2CO1` (configuration not stated), the values for the IC50 at Cholinesterase and on Acetylcholinesterase were 8.1 µM and 2.1 µM, respectively.

For the origin of these results see ChEMBL document CHEMBL3826971 (Bioorg Med Chem Lett, 2016).
